Only a part is listed here, and it is no random draw. Calls of active or inactive are those of the source.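 How the source made its calls: active means inhibition above a set limit, 3 SD over the mean compound inhibition (cut at about 44% in these data); inactive means the rest.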

The nature of the assay: growth inhibitors of yeast BB579 in restrictive medium, primary screen, yeast lifespan-shortening project, S. cerevisiae (AID 804). As to conditions: OD615, 48 h, at 10 µM, active compounds read high.
Usually inhibition stands for the change of the read-out against control, counted positive when it falls. `COc1ccc(OP(C)(=O)Nc2ccccc2Br)cc1` (centres undefined): the inhibition is inactive: -4.71%.

For the compound `COc1ccccc1OP(C)(=O)Nc1ccc(C)c(C)c1` (centres undefined), the inhibition was inactive: -18.9%.

`Cc1nc2ccc3ccccc3c2o1.O=[N+]([O-])c1cc([N+](=O)[O-])c(O)c([N+](=O)[O-])c1`: the inhibition is inactive: -37.2%.

For `CN(C)CCOC(=O)C(O)(c1ccccc1)C1CCCC1` (centres undefined), the inhibition was inactive: -17.4%.

With `COc1ccc(OP(C)(=O)Nc2ccccn2)cc1` (centres undefined), the inhibition was inactive: -19.8%.

Regarding `Cc1c(NP(C)(=O)Oc2ccc(C(C)C)cc2)c(=O)n(-c2ccccc2)n1C` (centres undefined), the inhibition is inactive: 9.12%.

As to `CCc1ccc(OP(C)(=O)O)cc1`, the inhibition is inactive: -23.7%.

For `COc1ccccc1OP(C)(=O)Nc1ccc(C)cc1C` (centres undefined), the inhibition is inactive: -29.6%.

Turning to `CP(=O)(Nc1ccccn1)Oc1ccccc1` (centres undefined), the inhibition was inactive: -0.51%.

On to `COc1ccc(OP(C)(=O)Nc2ccc(Br)cc2)cc1` (centres undefined), for which the inhibition is inactive: -11.2%.

Take `CCN(CC)CC(O)COC(=O)C(O)(c1ccccc1)C1CCCCC1` (centres undefined): the inhibition was inactive: -14.4%.

On to `CP(=O)(Oc1ccccc1)N1CCOC1=O` (centres undefined), for which the inhibition is inactive: -1.18%.

On to `CP(=O)(Nc1ccc(Cl)cc1)Oc1ccc(F)cc1` (centres undefined), for which the inhibition is inactive: -25.4%.

For `CC(C)(C)c1ccc(OP(C)(=O)O)cc1`, the inhibition is inactive: -12.7%.

Regarding `CP(=O)(OC12CC3CC(CC(C3)C1)C2)OC12CC3CC(CC(C3)C1)C2`, the inhibition was inactive: -22%.

Consider `CCOC(=O)c1ccc(NP(C)(=O)Oc2ccc(Cl)cc2)cc1` (centres undefined), for which the inhibition is inactive: -23.6%.

Take `COc1ccc(OP(C)(=O)Nc2cccc(Br)c2)cc1` (centres undefined): the inhibition is inactive: -12.7%.

On to `CN(C)CCOC(=O)C(O)(c1ccccc1)C1CCCCC1` (centres undefined), for which the inhibition was inactive: -40.5%.

In the case of `CCOP(C)(=S)SCC(=O)NC(C)(CC)C(=O)O` (centres undefined), the inhibition is inactive: -48.8%.

As for `CP(=O)(Nc1ccc2c(c1)OCCO2)Oc1ccccc1` (centres undefined), the inhibition was inactive: -9.96%.

In the case of `Cc1ccccc1NP(C)(=O)Nc1ccccc1C`, the inhibition was inactive: -24.6%.

With `CC(C)c1ccc(OP(C)(=O)Nc2ccc(SC(F)(F)F)cc2)cc1` (centres undefined), the inhibition is inactive: -22.4%.

In the case of `CP(=O)(Nc1ccccc1F)Oc1ccccc1` (centres undefined), the inhibition is inactive: -29.2%.

On to `O=C(OCCN1CCN(CCOCc2ccccc2)CC1)C(O)(c1ccccc1)c1ccccc1`, for which the inhibition is inactive: 4.3%.

For the compound `CCOC(=O)c1ccc(NP(C)(=O)Oc2ccc(F)cc2)cc1` (centres undefined), the inhibition was inactive: -14.8%.

Take `CCN(CC)CCCOC(=O)C(O)(c1ccccc1)C1CCCCC1` (centres undefined): the inhibition was inactive: -11.2%.

In the case of `CP(=O)(Nc1ccccc1)Oc1ccc(F)cc1` (centres undefined), the inhibition is inactive: -17.6%.

Consider `CC1=NCCc2c1[nH]c1ccccc21.O=[N+]([O-])c1cc([N+](=O)[O-])c(O)c([N+](=O)[O-])c1`, for which the inhibition is inactive: -41.6%.

Consider `Cc1cc(C)cc(OP(C)(=O)Nc2ccc(C)cc2C)c1` (centres undefined), for which the inhibition was inactive: -9.2%.

As for `CCOC(=O)c1ccc(NP(C)(=O)Oc2cc(C)cc(C)c2)cc1` (centres undefined), the inhibition is inactive: 5.2%.

Turning to `Cc1cc(C)cc(OP(C)(=O)Nc2ccccn2)c1` (centres undefined), the inhibition is inactive: 2.56%.

For `Cc1ccc(C)c(NP(C)(=O)Oc2ccccc2)c1` (centres undefined), the inhibition was inactive: -21.1%.

Regarding `Cc1nc2ccc3ccccc3c2s1.O=[N+]([O-])c1cc([N+](=O)[O-])c(O)c([N+](=O)[O-])c1`, the inhibition is inactive: -2.31%.

With `COc1ccccc1OP(C)(=O)Nc1c(C)cccc1C` (centres undefined), the inhibition is inactive: -31.6%.

Consider `CN1CCCCC1COC(=O)C1(O)c2ccccc2CCc2ccccc21` (centres undefined), for which the inhibition was inactive: -5.7%.

On to `CP(=O)(Nc1ccc(SC(F)(F)F)cc1)Oc1ccccc1` (centres undefined), for which the inhibition was inactive: -18.6%.

Consider `CP(=S)(Nn1cnnc1)Oc1ccccc1` (centres undefined), for which the inhibition was inactive: -18.5%.

For `CP(=O)(Nc1ccccc1Br)Oc1ccccc1` (centres undefined), the inhibition is inactive: 8.49%.

Consider `Cc1cccc(C)c1OP(C)(=O)Nc1ccc(SC(F)(F)F)cc1` (centres undefined), for which the inhibition was inactive: -29.1%.

On to `Cc1cc(C)cc(OP(C)(=O)Nc2ccc(SC(F)(F)F)cc2)c1` (centres undefined), for which the inhibition was inactive: -39.7%.

`CP(=O)(NC(=O)Nc1ccccc1)Oc1ccccc1` (centres undefined): the inhibition is inactive: -36.5%.

In the case of `CCOP(C)(=S)SCC(=O)NC(C)C(=O)O` (centres undefined), the inhibition is inactive: 12%.

On to `CCOC(=O)c1ccc(NP(C)(=O)Oc2ccc(OC)cc2)cc1` (centres undefined), for which the inhibition is inactive: -7.98%.

Regarding `CP(=O)(Nc1ccccn1)Oc1ccc(Cl)cc1` (centres undefined), the inhibition was inactive: -45.2%.

As for `CC(C)(C)c1ccc(OP(C)(=O)Nc2ccc(SC(F)(F)F)cc2)cc1` (centres undefined), the inhibition was inactive: -16.8%.

For the compound `CCOC(=O)c1ccc(NP(C)(=O)Oc2ccccc2)cc1` (centres undefined), the inhibition is inactive: -17.6%.

`Cc1ccc(NP(C)(=O)Oc2ccccc2)c(C)c1` (centres undefined): the inhibition is inactive: -62.8%.

In the case of `COc1ccccc1OP(C)(=O)Nc1ccc(C)cc1` (centres undefined), the inhibition is inactive: -9.95%.

With `COc1ccc(OP(C)(=O)Nc2cccc(F)c2)cc1` (centres undefined), the inhibition was inactive: -21.1%.
